Experimental findings from ChEMBL document CHEMBL3632592, “Identification of Highly Promising Antioxidants/Neuroprotectants Based on Nucleoside 5'-Phosphorothioate Scaffold. Synthesis, Activity, and Mechanisms of Action” (J Med Chem, 2015) are described below.

Structures are written as SMILES.

This assay in a line: Potency index, ratio of EDTA IC50 to compound IC50 for inhibition of Fe2+-induced DMPO-OH adduct formation from H2O2.
Regarding `Nc1ncnc2c1ncn2[C@@H]1O[C@H](COP(=O)(O)OP(=O)(O)S)[C@@H](O)[C@H]1O` (stereo partly specified), the Ratio IC50 was found to be 2.5.

As to `CSc1nc(N)c2ncn([C@@H]3O[C@H](COP(=O)(O)OP(=O)(O)S)[C@@H](O)[C@H]3O)c2n1` (stereo partly specified), the Ratio IC50 stood at 2.5. In the case of `Nc1nc(Cl)nc2c1ncn2[C@@H]1O[C@H](COP(=O)(O)OP(=O)(O)S)[C@@H](O)[C@H]1O` (stereo partly specified) it was 2.5; in that of `Nc1ncnc2c1ncn2[C@@H]1O[C@H](COP(=O)(S)OP(=O)(O)O)[C@@H](O)[C@H]1O` (stereo in doubt; 6A), 2.5.

As for `Nc1ncnc2c1ncn2[C@@H]1O[C@H](COP(=O)(S)OP(=O)(O)O)[C@@H](O)[C@H]1O` (stereo in doubt; 6B), the Ratio IC50 was 2.5. The same measure for `CSc1nc(N)c2ncn([C@@H]3O[C@H](COP(=O)(S)OP(=O)(O)O)[C@@H](O)[C@H]3O)c2n1` (stereo in doubt; 7A): 2.5; for `CSc1nc(N)c2ncn([C@@H]3O[C@H](COP(=O)(S)OP(=O)(O)O)[C@@H](O)[C@H]3O)c2n1` (stereo in doubt; 7B): 2.5; for `Nc1nc(Cl)nc2c1ncn2[C@@H]1O[C@H](COP(=O)(S)OP(=O)(O)O)[C@@H](O)[C@H]1O` (stereo in doubt; 8A): 2.5. Take `Nc1nc(Cl)nc2c1ncn2[C@@H]1O[C@H](COP(=O)(S)OP(=O)(O)O)[C@@H](O)[C@H]1O` (stereo in doubt; 8B): the Ratio IC50 stood at 2.5. In the case of `Nc1nc(Cl)nc2c1ncn2[C@@H]1O[C@H](COP(=O)(S)OP(=O)(O)OP(=O)(O)O)[C@@H](O)[C@H]1O` (stereo in doubt; 9A) it was 2.5. The same measure for `Nc1nc(Cl)nc2c1ncn2[C@@H]1O[C@H](COP(=O)(S)OP(=O)(O)OP(=O)(O)O)[C@@H](O)[C@H]1O` (stereo in doubt; 9B): 2.5.
